Assay results from patent US6750197.

Biological target: neuronal nitric oxide synthase (NNOS), as used for the CAM binding of Table 2 (Rattus norvegicus (Rat)) (UniProt P29476)
Experiment: radiolabeled CAM trapped on a membrane by NNOS adhesion; no peptide added

NNOS CAM Binding (counts): 774 counts
Substance: calmodulin (from UniProt P0DP23 2-149)
